# Test system: Streptococcus mutans biofilms
# Settings: pH 2.7; individual samples 1-6; 590 nm; 24 hours culture
# Excerpt: FIGS. 3 to 6 show the experimental results in which Streptococcus mutans strains are actually used. Streptococcus mutans is a facultative anaerobe and a gram-positive streptococcus. It produces insoluble, sticky glucans that stick to tooth surfaces. It is one of the bacteria that mainly cause dental caries. THB (TODD-HEWITT BROTH) supplemented with 2% (w/v) sucrose was used as the medium. Sucrose is a sugar composed of the monosaccharides glucose and fructose with an α-1,2-glycosidic linkage and one of the disaccharides. THB manufactured by Becton, Dickinson and Company was used. For sucrose, “CASRN” manufactured by FUJIFILM Wako Pure Chemical Corporation was used. The plate used for culture was a Thermo Scientific Nunclon Delta Surface 96 well. The incubator used was a Panasonic multi-gas incubator MCO-5MUV-PJ. Culturing was conducted at 37° C. under an atmosphere of 5% CO2 gas, 5% O2 gas and 90% N2 gas.
# Devices and the like used to measure residual biofilms are described below. […]
# Life Technologies EVOS XL Core was used as the microscope for photography. […] The data processing software was “SF6” and the absorbance wavelength was 590 nm. […]
# Crystal Violet was then extracted with 100 μL of 99.5% ethanol (FUJIFILM Wako Pure Chemical Corporation), and the absorbance was measured at a wavelength of 590 nm using an absorption spectrometer grating microplate reader.
smiles,measurement,value
[2H]OS(=O)(=O)O[2H] [deuterated sulfuric acid (D2SO4)],Absorbance,0.808

# Source: patent US20250176553A1, “SOLUTION FOR […] AND METHOD OF PRODUCING THEREOF” (OCT, Inc., priority 2022, published 2025)
